Laboratory results reported in patent US10456407B2, “Combination therapy for treating cancer” (Epizyme, Inc., priority 2015, dated 2019).

Test system: SU-DHL10 cells
Test: RT2 Glucocorticoid signaling PCR array, SU-DHL10 (SUDHL10) cell line (Table 4d)
Type: cell-based
Conditions: SUDHL10, 4 days, vs DMSO
From the text: Expression levels of (A). Sestrin; (B). TNF and (C) GILZ normalized to DMSO controls for each cell line with the indicated single agent or combination.

C[C@]12C=CC(=O)C=C1CC[C@@H]1[C@@H]2[C@@H](O)C[C@@]2(C)[C@H]1CC[C@]2(O)C(=O)CO [Prednisolone, prednisolone]
ADARB1 Fold Change: 0.213
AFF1 Fold Change: 1.076
AK2 Fold Change: 1.270
AMPD3 Fold Change: 1.254
ANGPTL4 Fold Change: 1.075
ANXA4 Fold Change: 1.001
ARIDS8 Fold Change: 0.329
ASPH Fold Change: 0.889
ATF4 Fold Change: 0.337
BCL6 Fold Change: 0.477
CEBPA Fold Change: 0.581
CEBPB Fold Change: 0.186
CREB1 Fold Change: 0.981
CREB3 Fold Change: 1.070
CREB3L4 Fold Change: 0.460
CYB561 Fold Change: 0.893
DDIT4 Fold Change: 2.317
DUSP1 Fold Change: 1.646
EHD3 Fold Change: 1.207
FK8PS Fold Change: 3.029
FOSL2 Fold Change: 2.850
GDPD1 Fold Change: 1.916
GOT1 Fold Change: 0.582
H6PD Fold Change: 0.557
HNRPLL Fold Change: 0.711
KLF9 Fold Change: 3.742
KLF13 Fold Change: 4.566
LOX Fold Change: 1.419
MT2A Fold Change: 0.280
NFKBIA Fold Change: 0.953
NR3C1 Fold Change: 8.837
PDCD7 Fold Change: 0.743
PDP1 Fold Change: 0.701
PER1 Fold Change: 1.597
PER2 Fold Change: 1.152
PIK3R1 Fold Change: 1.028
PLEKHF1 Fold Change: 1.254
POU2F1 Fold Change: 1.042
POU2F2 Fold Change: 1.152
RA5A3 Fold Change: 0.966
RGS2 Fold Change: 0.387
RHOB Fold Change: 0.897
SESN1 Fold Change: 10.652
SGK1 Fold Change: 0.509
SLC10A6 Fold Change: 2.918
SLC19A2 Fold Change: 0.309
SLC22A5 Fold Change: 0.264
SNTA1 Fold Change: 1.047
SPHK1 Fold Change: 1.213
SPSB1 Fold Change: 1.546
STAT5A Fold Change: 0.768
STAT5B Fold Change: 0.608
TBL1XR1 Fold Change: 0.930
TNF Fold Change: 0.858
TNFAIP3 Fold Change: 0.518
TSC22D3 Fold Change: 2.846
USP2 Fold Change: 1.224
USPS4 Fold Change: 0.972
VDR Fold Change: 1.185
VLDLR Fold Change: 0.041
ZFP36 Fold Change: 1.338
ZHX3 Fold Change: 0.981
ZNF281 Fold Change: 1.380
